The target of this test is (IgG1)6:(sEGFR)12, pre-formed complex of IgG1-RGY hexamer with soluble EGFR (UniProt P00533). Kind of test: native charge detection MS.

The chains behind the UniProt entries cited, without tags or fusion partners. Residues count along the entry.
UniProt P02745, 23-245: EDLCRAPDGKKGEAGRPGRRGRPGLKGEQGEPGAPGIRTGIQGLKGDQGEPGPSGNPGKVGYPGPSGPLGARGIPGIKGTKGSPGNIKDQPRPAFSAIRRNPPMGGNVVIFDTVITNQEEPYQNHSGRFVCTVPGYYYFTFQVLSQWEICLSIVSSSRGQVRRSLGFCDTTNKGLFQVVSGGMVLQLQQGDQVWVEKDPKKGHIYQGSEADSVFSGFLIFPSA
Human complement component C1q, UniProt P02746, 28-253: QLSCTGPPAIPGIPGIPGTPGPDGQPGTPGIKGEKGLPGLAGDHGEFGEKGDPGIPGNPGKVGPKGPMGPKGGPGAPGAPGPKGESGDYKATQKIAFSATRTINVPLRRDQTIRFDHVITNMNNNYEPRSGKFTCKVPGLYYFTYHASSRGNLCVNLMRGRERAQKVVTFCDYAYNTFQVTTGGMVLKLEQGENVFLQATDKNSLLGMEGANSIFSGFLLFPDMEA
Human complement component C1q, UniProt P02747, 29-245: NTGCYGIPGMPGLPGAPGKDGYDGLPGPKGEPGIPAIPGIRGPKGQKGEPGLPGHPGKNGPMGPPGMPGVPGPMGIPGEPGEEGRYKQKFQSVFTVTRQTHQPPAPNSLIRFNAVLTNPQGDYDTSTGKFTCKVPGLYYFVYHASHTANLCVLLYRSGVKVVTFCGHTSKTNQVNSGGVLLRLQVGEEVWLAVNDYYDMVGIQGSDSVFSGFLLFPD

Broadly, the stoichiometry N is a count of units in the complex or per binding partner. Substance “Human complement component C1q (from UniProt P02745 23-245; P02746 28-253; P02747 29-245) (complex)” gave a stoichiometry N of 1.

(Values after article PMC8771642.)
